We go through four compounds from PubChem BioAssay AID925 (National Center for Advancing Translational Sciences (NCATS), 2007).

This is a selection; strong and weak results do not stand in their true shares. Some tests of the compounds listed are not included; inactive here does not mean inactive elsewhere. Calls of active or inactive are those of the source. The call rests on the fitted dose curve; in most records, active means well fitted activation curve with a large enough effect; inconclusive means small, poorly fitted or top-dose-only effect; inactive means flat fitted curve, though single readings scatter.

The assay is described as follows: qHTS Assay for Modulators of Hemoglobin Beta Chain Splicing. Further: 0% is about no effect. As to conditions: HBB splicing reporter cell assay, EGFP reporter with mutant IVS2-654 intron, normalised to 500 nM splice-correcting PNA; at 9.22 µM unless noted. From the text: NIH Chemical Genomics Center [NCGC]
NIH Molecular Libraries Screening Centers Network [MLSCN]
PI Name: Dr. Ryszard Kole
Modulation of Alternative Splicing as Therapy
Abnormal splicing is associated with a number of diseases, including cancer and genetic diseases such as cystic fibrosis, muscular dystrophy and beta-thalassemia. Alteration of disease associated splicing patterns provides a promising target for treatment. […] Mutations in the second intron of the beta-globin gene at positions are clinically relevant and cause mis-splicing which results in an out of frame gene product.
EGFP-654 and 705 HeLa Cells as screen system.
HeLa cell lines were stably transfected with a construct in which the EGFP (enhanced green fluorescent protein) cDNA was interrupted by the second intron of the beta-globin gene (IVS2-654). The ISV2 intron contains mutations which cause mis-splicing of EGFP and premature termination of EGFP which results in a nonfluorescent protein product. […] Expression of the transgene was driven by the CMV promoter. We concluded that a low molecular weight compound, which restored correct splicing of intron 2 would also generate functional EGFP protein, resulting in a fluorescent signal. Thus, the HeLa cells that express the EGFP-654 construct can be used for high throughput screening of a chemical library.
NCGC Assay Protocol Summary:
High Throughput Screening. Freshly thawed HeLa EGFP-654 cells were seeded in 5 ul of optimem media (Invitrogen) containing 2 % fetal calf serum (Hyclone) and 1x penicillin/streptomycin (Invitrogen) at a concentration of 500 cells per well in 1536-well plates. Cells were incubated overnight at 37C in 5% CO2. The next day, cells were treated with DMSO, 500 nM antisense ISV2 654 PNA control oligo, or library compound and allowed to grow at 37C in 5% CO2 for 2 days. The PNA oligo blocked the mutation site in the intron and allowed proper (wild type) splicing to occur, resulting in full length EGFP expression and also allowed for optimization of the assay parameters. Plates were read in the Acumen Explorer (TTP Labtech) using 488 nm laser excitation and 500-520 nm emission PMT filter in a 1 x […] capture mode. Fluorescnet Fluorescent objects ranging in size from […] were measured and the total peak GFP intensity for each well was used for data analysis.
Keywords: Thalassemia, beta-thalassemia, beta-globin, EGFP, ISV2 654, ISV2 705, SSO, PNA, antisense, splicing, MLSMR, MLSCN, NIH Roadmap, qHTS, NCGC
`CN(C)c1cccc(C(=O)NCC2(N(C)C)CCCCC2)c1`: the activation was inactive: -2.46% [at 46.1 µM].

As for `CN1CCC[C@H](OC(=O)[C@](O)(c2ccccc2)C2CCCC2)C1`, the activation was inactive: 3.64%.

Regarding `CN1CC[C@H](OC(=O)[C@](O)(c2ccccc2)C2CCCC2)C1`, the activation was inactive: 4.11%. On to `C=C(C)C#C[C@@](O)(C(=O)OC1CCN(C)CC1)c1ccccc1`, for which the activation was inactive: 0.866%.
